Antibody variant affinities, Ab-14 heavy chain, assay B

Target: peptide PDVDLGDISGINAS, taken from heptad repeat 2 (HR2) of SARS-CoV-2 spike.

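The starting antibody came from a phage panning campaign against this peptide. The variants were designed computationally from a first round of random CDR variants and then made and measured. Group labels follow the data file (Ctrl: baseline library sampled from a position-specific scoring matrix, with some repeated check sequences; Rand: our label for a block that the file lists under HC and that is probably the random mutants of the ten best first-round binders; En: ensemble of fine-tuned language models; GP: Gaussian process model; GPLM: also part of the Gaussian process libraries; HC: hill climbing; Gen: genetic algorithm; Gibbs: Gibbs sampling; a sequence that several methods proposed may carry one label only). AlphaSeq pools MATa yeast showing the antibodies with MATalpha yeast showing the peptide. Pairs that bind mate more often; barcode pairs of the diploids are counted by sequencing. A regression on co-assayed BCL2-family reference pairs converts the normalised counts of each replicate to an apparent Kd. There are six technical replicates.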

Each scFv is VH, a 15-residue (Gly4Ser)3 linker, VL, as in the parent Ab-14, and differs from it in the CDRs of the heavy chain only.
VH: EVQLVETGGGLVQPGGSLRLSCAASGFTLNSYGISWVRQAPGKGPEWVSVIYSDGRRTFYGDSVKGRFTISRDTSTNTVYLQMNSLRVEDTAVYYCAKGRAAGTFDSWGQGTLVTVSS
VL: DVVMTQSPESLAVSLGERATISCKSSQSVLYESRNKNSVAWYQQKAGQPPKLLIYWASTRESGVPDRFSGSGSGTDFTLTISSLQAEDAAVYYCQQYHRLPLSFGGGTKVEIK

Variants are written as CDR1, CDR2 and CDR3 of the heavy chain (limits as in the source). Parent: GFTLNSYGIS, VIYSDGRRTFYGDSVK, GRAAGTFDS.
This list holds designs with at most six substitutions.
The Kd shown is the geometric mean over detected replicates; a lower Kd is a better binder.
"no signal" marks a missing value. The strain was present, yet no cells mated with the target were sequenced in any replicate, which points to weak or no binding.
Values of this round are not directly comparable with the first-round values of the same sequences.
Three control strains display no target. For all heavy chain designs, 1% of the pairings with them gave a signal, with a median of 120 nM and one signal in twenty below 7.0 nM, so weak values seen in few replicates may be background. The control count says in how many pairings with the empty strains this scFv gave a signal.
The authors averaged sequences with at least three values out of six and counted those with two or fewer as poor binders.
The parent sequence was in this pool as ten entries: three were never detected, three once, and four in most replicates, with averages from 2.2 nM to 240 nM.

With GFQLNSYGIS | VIYSDGRRTFYIDSVK | GQAAGTFDS [GPLM_Gen] the result was 35 nM (4 of 6 replicates; controls 0 of 18).
With GFDLNSYGIS | VIYSDGRRTFYGDSVK | GRATGWFNQ [Rand] the result was no signal (0 of 6 replicates; controls 0 of 18).
With GFTLESYGIS | VIYSDGRRTFYSDSVK | GRAMGTFDS [GP_HC] the result was no signal (0 of 6 replicates; controls 1 of 18).
With GFTLNSYGIS | VIYSDGRRTFYTDSVK | GRVAGTFDS [Ctrl] the result was 6.4 nM (4 of 6 replicates; controls 0 of 18).
With GFTLNSYGIS | VIYSDGRRTFYSDSVK | GRAAGTFDN [Ctrl] the result was 2.5 nM (3 of 6 replicates; controls 0 of 18).
With GFSLNSYGIS | VIYSDGRRTFYADSVK | GVNAGTFDS [GPLM_Gen] the result was 2.7 nM (6 of 6 replicates; controls 0 of 18).
With GFTLNSYGIS | VIYSDGKRTFYSDNVK | GEAAGTFDS [GP_Gibbs] the result was 1.4 nM (4 of 6 replicates; controls 0 of 18).
With GFTLNSYGIS | VIYSDGRRTFYGDSVK | WRAAGTSDS [Ctrl] the result was no signal (0 of 6 replicates; controls 1 of 18).
With GFQLNSYGIS | VIYSDGKRTFYGDSVK | GRAAGTFDS [GP_HC] the result was 65 nM (5 of 6 replicates; controls 0 of 18).
With GFSLNEYGIS | VIYSDGRRTFYGDSVK | GRQAGTFDG [GPLM_Gibbs] the result was 3.1 nM (6 of 6 replicates; controls 0 of 18).
With GFTLESYGIS | VIYSDGRRTFYGDSVT | HRAAGTFDS [Ctrl] the result was no signal (0 of 6 replicates; controls 0 of 18).
With GFLLNDYGIS | VIYSDGRRTFYIDTVK | GNAAGTFDS [GP_HC] the result was 18 nM (4 of 6 replicates; controls 0 of 18).
With GFTLNSYGIS | VIYSDGRRMFYGDCVK | GRAAQTFDS [Ctrl] the result was no signal (0 of 6 replicates; controls 0 of 18).
With GFGLNEYGIS | VIYSDGRRTFYGDSVK | GRVAGTFDS [GP_Gen] the result was 4.7 nM (6 of 6 replicates; controls 0 of 18).
With GFTLNDYGIS | VIYSDGRRTFYGDSVK | GRAAGTFMS [GPLM_HC] the result was 6.8 nM (5 of 6 replicates; controls 0 of 18).
With GFQLNSYGIS | VIYSDGRRTFYIDSVK | GRMAGTFDS [GP_Gibbs] the result was no signal (0 of 6 replicates; controls 1 of 18).
With GFELNSYGIS | VIYSDGRRTFYADNVK | GRTAGTFDS [GP_Gen] the result was 11 nM (1 of 6 replicates; controls 0 of 18).
With GFTLNSYGIS | VIYSDGRRTFYIDSVK | GRAAGTFES [Ctrl] the result was no signal (0 of 6 replicates; controls 0 of 18).
With GFELNSYGIS | VIYSDGRRTFYGDSVK | GVLAGTFDL [GP_Gibbs] the result was 26 nM (5 of 6 replicates; controls 0 of 18).
With GFSLNSYGIS | VIYADGRRTFYGDSVK | GTAAGTFDS [GPLM_Gen] the result was 340 pM (6 of 6 replicates; controls 0 of 18).
With GFNLNSYGIS | VIYSDGRRTFYADQVK | GQAAGTFDS [GPLM_Gen] the result was 8.5 nM (6 of 6 replicates; controls 0 of 18).
With GFTLNSYGIS | VIYADGRRTFYGDSVK | GYAIGTFRS [Ctrl] the result was no signal (0 of 6 replicates; controls 0 of 18).
With KFDLNEYGIS | VIYSDGRRTFYGDSVK | GRTAGTFDS [GP_Gen] the result was 8.1 nM (6 of 6 replicates; controls 0 of 18).
With GFSLDEYGIS | VIYADGRRTFYADSVK | GNAAGTFDS [En_HC] the result was no signal (0 of 6 replicates; controls 0 of 18).
With GFTLNQYGIS | VRYSDGRRTFYSDSVK | GRAAGFFYS [Rand] the result was no signal (0 of 6 replicates; controls 0 of 18).
With KFSLNSYGIS | VIYSDGRRTFYADSVK | GRLAGTFDS [GPLM_Gen] the result was 200 nM (4 of 6 replicates; controls 1 of 18).
With GFTLNSYGIS | VIYSDGRRTFYGDSVK | GTAAGTFDN [Ctrl] the result was 17 nM (6 of 6 replicates; controls 0 of 18).
With GFTLNDYGIS | VIYSDGRRTFYSDSVK | GRAAGSFDS [GPLM_HC] the result was 4.1 nM (6 of 6 replicates; controls 1 of 18).
With GFTLNDYGIS | VIYSDGRRTFYGDSVK | GRAAGTFEK [GPLM_HC] the result was 1.1 µM (3 of 6 replicates; controls 1 of 18).
With GFTLNEYGIS | VIYSDGKRTFYGDSVK | GRHAGTFDS [GP_Gen] the result was 5.7 nM (6 of 6 replicates; controls 0 of 18).
With RFTLNSYSIS | VIYSDGRRTFYGDSVD | CRAAGTFDS [Ctrl] the result was no signal (0 of 6 replicates; controls 0 of 18).
With GFNLNSYGIS | VIYSDGRRTFYADSVK | GNVAGTFDS [GPLM_Gibbs] the result was 850 pM (6 of 6 replicates; controls 4 of 18).
With GFNLNSYGIS | VIYSDGRRTFYGDSVK | GRMAGTFDT [GP_Gen] the result was 11 nM (6 of 6 replicates; controls 0 of 18).
With GFTLNSYGIS | VIYSDGRRTFYTDSVK | GQFAGTFDS [GPLM_HC] the result was 210 nM (4 of 6 replicates; controls 2 of 18).
With GFDLNSYGIS | VIYSDGRRTFYGDAVK | GQAAGTFDQ [GP_Gibbs] the result was 6.3 nM (6 of 6 replicates; controls 0 of 18).
With GFELNSYGIS | VIYSDGRRTFYGDSVK | GHAAGTFDD [GPLM_Gibbs] the result was 17 nM (6 of 6 replicates; controls 1 of 18).
With MFDLNTYGIS | VIYSDGRRTAYGDSVK | GRAAGTFDS [GP_Gibbs] the result was 4.7 nM (6 of 6 replicates; controls 0 of 18).
With GFTLNEYGIS | VIYSDGRRTFYTDSVK | GRVAGTFDV [GP_HC] the result was 600 pM (6 of 6 replicates; controls 0 of 18).
With GFSLNSYGIS | VIYSDGRRTFYVDSVK | GNTAGTFDT [GP_Gibbs] the result was 360 pM (6 of 6 replicates; controls 0 of 18).
With GFTLNSRGIS | VIYSDGRRFFYSDSVK | GRAGGTFDS [Rand] the result was no signal (0 of 6 replicates; controls 0 of 18).
With GFSLNSYGIS | VIYSDGKRTFYKDSVK | GRTAGTFDS [GP_Gen] the result was 1.5 nM (6 of 6 replicates; controls 0 of 18).
With GFSLNSYGIS | VIYSDGHRTFYGDSVK | GKTAGTFDS [GP_Gibbs] the result was 1.9 nM (6 of 6 replicates; controls 0 of 18).
With GFTLNEYGIS | VIYSDGMRTAYLDSVK | GRAAGTFDS [Ctrl] the result was 660 pM (5 of 6 replicates; controls 0 of 18).
With GFTLNSYGIS | VIYADGRRTFYGDQVK | GRAAGTFIS [GP_HC] the result was no signal (0 of 6 replicates; controls 0 of 18).
With GFTLNEYGIS | VIYSDGRRTFYGDSVK | GRATVTFDQ [Rand] the result was no signal (0 of 6 replicates; controls 0 of 18).
With GFDLNSYGIS | VIYSDGRRTFYKDSVK | GRTAGTFDT [GP_Gen] the result was 810 pM (6 of 6 replicates; controls 0 of 18).
With KFDLNSYGIS | VIYSDGRRTFYADSVK | GQAAGTFDS [GPLM_Gen] the result was 22 nM (6 of 6 replicates; controls 0 of 18).
With GFWLNSYGIS | VIYSDGRRTFYADSVK | GRTAGTFDS [GPLM_Gen] the result was 7.0 nM (5 of 6 replicates; controls 0 of 18).
With GFTLNDYGIS | VIYSDGRRTFYIDSVK | GRQAGTFDS [GPLM_Gen] the result was 3.4 nM (6 of 6 replicates; controls 0 of 18).
With GFPLNSYGIS | VIYADGRRTAYTDSVK | GRPAGTFDV [Ctrl] the result was 66 nM (5 of 6 replicates; controls 0 of 18).
With GFTLNSYGSS | VIYSDGMRTFYGDSVK | GRAAGTFDS [Ctrl] the result was no signal (0 of 6 replicates; controls 1 of 18).
With GFTLNEYGIS | VIWSDGRRQFYGDSVK | GRAAGTFDS [Ctrl] the result was 130 nM (1 of 6 replicates; controls 0 of 18).

Picked from the list: the 8 lowest averages where every replicate gave a value.

CDR-H1	CDR-H2	CDR-H3	group	apparent Kd	seen in	empty controls
GFSLNSYGIS	VIYADGRRTFYGDSVK	GTAAGTFDS	GPLM_Gen	340 pM	6 of 6	0 of 18
GFSLNSYGIS	VIYSDGRRTFYVDSVK	GNTAGTFDT	GP_Gibbs	360 pM	6 of 6	0 of 18
GFTLNEYGIS	VIYSDGRRTFYTDSVK	GRVAGTFDV	GP_HC	600 pM	6 of 6	0 of 18
GFDLNSYGIS	VIYSDGRRTFYKDSVK	GRTAGTFDT	GP_Gen	810 pM	6 of 6	0 of 18
GFNLNSYGIS	VIYSDGRRTFYADSVK	GNVAGTFDS	GPLM_Gibbs	850 pM	6 of 6	4 of 18
GFSLNSYGIS	VIYSDGKRTFYKDSVK	GRTAGTFDS	GP_Gen	1.5 nM	6 of 6	0 of 18
GFSLNSYGIS	VIYSDGHRTFYGDSVK	GKTAGTFDS	GP_Gibbs	1.9 nM	6 of 6	0 of 18
GFSLNSYGIS	VIYSDGRRTFYADSVK	GVNAGTFDS	GPLM_Gen	2.7 nM	6 of 6	0 of 18

Reference: Li et al. 2023, doi:10.1038/s41467-023-39022-2. File: FLAb, binding data.